# scFv variants of Ab-14 (light chain) against a SARS-CoV-2 spike peptide

Target peptide (SARS-CoV-2 spike, HR2 region): PDVDLGDISGINAS

Parent scFv Ab-14: VH joined to VL by a (GGGGS)3 linker. Changes lie in the light chain CDRs alone.
VH: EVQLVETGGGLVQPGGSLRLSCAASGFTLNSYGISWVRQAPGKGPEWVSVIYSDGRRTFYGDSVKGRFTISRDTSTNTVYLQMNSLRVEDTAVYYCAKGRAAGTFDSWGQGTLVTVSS
VL: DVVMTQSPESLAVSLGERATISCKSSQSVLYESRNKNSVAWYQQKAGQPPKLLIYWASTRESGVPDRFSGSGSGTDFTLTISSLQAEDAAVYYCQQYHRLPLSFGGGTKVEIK

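The starting antibody came from a phage panning campaign against this peptide. Library AAYL50 holds single substitutions and randomly drawn double and triple substitutions in the CDRs. The assay is AlphaSeq: two haploid yeast populations carry antibody and antigen on their surface. Binding brings cells together so that they mate, and sequencing counts the barcode pairs among the diploids. The ratio of observed to expected reads was calibrated, replicate by replicate, on BCL2-family standards whose Kd was known from biolayer interferometry. There are three technical replicates.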

Substitutions are numbered in sequence along the VL above, starting at 1 (not Kabat). Numbers give log10(Kd / nM), so 0 is 1 nM and 3 is 1 µM. Smaller is tighter. A mean of the replicates is given; it leaves out those without a signal. Where no diploid with the target was found in any replicate, the entry reads "no signal": below detection, most likely a poor binder, though not proof of it. Nonspecific signal, from three strains lacking the peptide, appeared in 18% of pairings of library AAYL50, centred on 4.19 (5% of these signals below 2.99); values are not corrected for it. For each scFv, signals with the empty controls are counted beside the result.

changes | mean, log10 nM | detected | signal with controls
Y31H/V39Y | 3.92 | 3 of 3 | 4 of 9
R34C/E61F/Q96A | 3.01 | 3 of 3 | 4 of 9
Y31P/K36A/Y97L | 0.55 | 3 of 3 | 1 of 9
N35I/R60L/S62V | 2.96 | 3 of 3 | 0 of 9
N35L/A40L/S58L | no signal | 0 of 3 | 0 of 9
S28M/A40I/E61L | no signal | 0 of 3 | 0 of 9
S26Y/Q27D/K36E | 1.80 | 3 of 3 | 1 of 9
R60M/Q96C/L102Y | no signal | 0 of 3 | 0 of 9
S26R/E32A | 1.73 | 3 of 3 | 0 of 9
S33T/Q96E | 1.93 | 2 of 3 | 0 of 9
K24D/L30F/R60G | 1.88 | 3 of 3 | 0 of 9
N35A/W56A | 0.24 | 3 of 3 | 2 of 9
K24S/Q95E/L100P | 1.18 | 3 of 3 | 5 of 9
Q27A/Y31F/E32V | 2.81 | 3 of 3 | 0 of 9
S25G/S28P/L100T | 3.90 | 2 of 3 | 1 of 9
N37I/S38M/P101G | no signal | 0 of 3 | 3 of 9
L30E/V39R/W56Q | 5.49 | 1 of 3 | 1 of 9
E61M/Q96K/H98T | 2.29 | 1 of 3 | 1 of 9
V29E/Q96L | 2.14 | 3 of 3 | 1 of 9
N37D/R99V/S103R | 1.96 | 1 of 3 | 0 of 9
S33Y/Q96F/S103N | 2.61 | 1 of 3 | 0 of 9
S26Q/V29Y/R34N | 1.43 | 3 of 3 | 1 of 9
S25K/S33T/N37H | no signal | 0 of 3 | 0 of 9
S38I/R60W/E61T | no signal | 0 of 3 | 1 of 9
S33Q/E61S/Q95Y | no signal | 0 of 3 | 0 of 9
N35W/S58W/Q95D | 4.51 | 3 of 3 | 7 of 9
V39I/W56T/R60G | 3.32 | 1 of 3 | 1 of 9
Q96W/Y97L/P101G | 0.85 | 3 of 3 | 0 of 9
S58M/Q95N/L102Q | 4.85 | 1 of 3 | 0 of 9
S33I/S58F/L100C | 4.73 | 1 of 3 | 2 of 9
S26F/P101N/S103Q | no signal | 0 of 3 | 1 of 9
S25G/S28V/V29I | 1.55 | 3 of 3 | 0 of 9
S26T/Y97D/R99A | 4.34 | 2 of 3 | 5 of 9
S25F/T59L/E61L | 0.55 | 3 of 3 | 1 of 9
S25H/Q27E/Q96C | 2.22 | 3 of 3 | 3 of 9
S28W/S33H/H98M | 2.15 | 3 of 3 | 1 of 9
S26K/E61G/P101K | no signal | 0 of 3 | 1 of 9

Second part, the sequence after the result:

mean, log10 nM | detected | signal with controls | changes
3.33 | 2 of 3 | 3 of 9 | V29P/L100M/P101I
1.27 | 3 of 3 | 3 of 9 | Q27H/N35S/T59Q
3.57 | 1 of 3 | 3 of 9 | Y31C/Y97D
5.42 | 1 of 3 | 3 of 9 | S33D/V39S/A40L
no signal | 0 of 3 | 1 of 9 | S28L/N37V/L100G
3.65 | 3 of 3 | 3 of 9 | V29Y/Q96G/L102N
no signal | 0 of 3 | 0 of 9 | L30V/T59Q/P101C
3.56 | 1 of 3 | 1 of 9 | S33N/K36L/R60W
no signal | 0 of 3 | 0 of 9 | V29Y/R60W
no signal | 0 of 3 | 1 of 9 | Q27E/S33K/Q95T
no signal | 0 of 3 | 1 of 9 | R60A/Q95H/P101K
1.06 | 3 of 3 | 3 of 9 | L30I/S33N/K36I
5.75 | 2 of 3 | 5 of 9 | K36H/A40I/S62Y
0.57 | 3 of 3 | 7 of 9 | R34N/N35A/R99Q
0.91 | 3 of 3 | 1 of 9 | Q27R/K36L/S103Y
4.20 | 2 of 3 | 2 of 9 | S62G/Q95V/Q96D
no signal | 0 of 3 | 0 of 9 | N35R/E61W/S62K
no signal | 0 of 3 | 0 of 9 | L30G/S62N/R99H
1.16 | 3 of 3 | 2 of 9 | S25P/S28M/V29N
2.75 | 3 of 3 | 4 of 9 | K24V/N35G/N37T
no signal | 0 of 3 | 0 of 9 | N35D/S38M/R99S
2.81 | 2 of 3 | 1 of 9 | Q27N/S28M/Q95A
1.19 | 3 of 3 | 0 of 9 | L30V/Y31E/W56T
1.95 | 3 of 3 | 1 of 9 | S25P/Y31K/K36Y
4.11 | 2 of 3 | 2 of 9 | S25E/V29W/E61M
no signal | 0 of 3 | 4 of 9 | L30R/L100I/S103F
2.83 | 3 of 3 | 1 of 9 | Y31G/A57R/L100I
4.39 | 1 of 3 | 1 of 9 | S33F/L100H
no signal | 0 of 3 | 0 of 9 | S28E/A57I/E61C
4.44 | 1 of 3 | 1 of 9 | S33Y/R60D/L102S
2.57 | 3 of 3 | 2 of 9 | A57S/S58F/Q95V
5.21 | 2 of 3 | 5 of 9 | W56Q/E61W/Y97G
no signal | 0 of 3 | 1 of 9 | S26T/S62A/L102N
1.26 | 3 of 3 | 2 of 9 | Q95P/R99W/P101F
2.42 | 3 of 3 | 2 of 9 | S38E/W56S/Y97E
0.81 | 3 of 3 | 4 of 9 | S26M/L100A
1.82 | 3 of 3 | 3 of 9 | Q27T/S58A/L102Y

For reference, 5 entries of the list once more:

| changes | mean, log10 nM | detected | signal with controls |
|---|---|---|---|
| N35L/A40L/S58L | no signal | 0 of 3 | 0 of 9 |
| S25H/Q27E/Q96C | 2.22 | 3 of 3 | 3 of 9 |
| S25K/S33T/N37H | no signal | 0 of 3 | 0 of 9 |
| Q96W/Y97L/P101G | 0.85 | 3 of 3 | 0 of 9 |
| V29E/Q96L | 2.14 | 3 of 3 | 1 of 9 |

Parent in this assay: reference entry 0.65, copy in this library 1.68.

Values reported by Engelhart et al. 2022, doi:10.1038/s41597-022-01779-4 (FLAb copy).